Key:
[1] = biological target: T1, Synaptic vesicular amine transporter (Rattus norvegicus, UniProt Q01827); experiment: Inhibition of [3H]DTBZ binding to VMAT2 in rat brain incubated for 30 mins by liquid scintillation spectrometry analysis; type: tissue-based
[2] = biological target: T1, Synaptic vesicular amine transporter; experiment: Inhibition of [3H]DA uptake at VMAT2 in rat striatal synaptosome incubated for 10 mins followed by [3H]DA addition and measured after 20 mins by TopCount scintillation counting method; type: subcellular, Striatum

Sequences of proteins named here, by UniProt entry; tags and fusion partners are left off.
UniProt Q01827, whole entry: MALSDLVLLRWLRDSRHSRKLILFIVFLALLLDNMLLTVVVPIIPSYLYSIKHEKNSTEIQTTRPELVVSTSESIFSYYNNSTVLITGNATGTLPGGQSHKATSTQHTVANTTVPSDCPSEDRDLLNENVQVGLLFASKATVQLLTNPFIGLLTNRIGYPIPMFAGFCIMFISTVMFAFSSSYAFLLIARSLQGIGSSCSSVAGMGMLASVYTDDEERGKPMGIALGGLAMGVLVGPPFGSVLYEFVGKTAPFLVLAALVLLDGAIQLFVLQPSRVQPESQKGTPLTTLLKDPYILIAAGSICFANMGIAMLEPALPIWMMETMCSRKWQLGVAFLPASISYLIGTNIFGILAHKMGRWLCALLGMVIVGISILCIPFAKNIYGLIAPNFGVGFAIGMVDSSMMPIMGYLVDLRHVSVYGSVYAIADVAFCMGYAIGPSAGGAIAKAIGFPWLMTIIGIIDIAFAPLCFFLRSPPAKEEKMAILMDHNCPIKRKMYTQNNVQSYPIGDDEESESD

COc1cc2c(cc1OC)C1CC(=O)C(CC(C)C)CN1CC2 (configuration not stated) [TETRABENAZINE]
IC50 [1]: 70.2 nM | IC50 [2]: 11 nM

Reference: ChEMBL document CHEMBL4828724 (Eur J Med Chem, 2021)
